Sampled rows, rich in hits. Any-hit rate of the full collection: about 16%.
uPA generation = blocks generation of uPA at the cell surface; Potency, µM (titrated, usually from 38.3 µM), for inactives: at the highest dose activity change, negative = inhibition, most hits filed as inhibitors; cell surface uPA generation assay, qHTS; 330,000 tested, 0.31% active; active = well fitted inhibition curve with a large enough effect; inconclusive = small, poorly fitted or top-dose-only effect; inactive = no such curve, though single readings can be large or run the other way; tested in mouse RAW 264.7 cells; also: potency is read from the fitted curve at half-maximal effect; % is scaled to controls: 0 for no effect and ±100 for the full control effect; nearly all actives have a fitted effect of over 55% in size
TDP1 block = blocks human tyrosyl-DNA phosphodiesterase 1; Q9NUW8; recombinant TDP1, AlphaScreen DNA substrate cleavage; Potency, µM (series often up to 130 µM), without a hit: top-dose activity change, negative = inhibition, actives largely listed as inhibitors; 350,000 tested, 0.28% active; AID 485290; also: potency is read from the fitted curve at half-maximal effect; % is scaled to controls: 0 for no effect and ±100 for the full control effect; nearly all actives have a fitted effect of over 40% in size
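E. coli-derived human Tdp1, 1 nM final. Cpd preinc 15 min RT; substrate 15 nM final, 5 min RT; AS bead mix 10 ug/ml final, 10 min RT. Signal loss = tyrosine-FITC cleavage. No-enzyme wells = max signal.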
TDP1 cell noCPT = qHTS for Inhibitors of human tyrosyl-DNA phosphodiesterase 1 (TDP1): qHTS in cells in absence of CPT. DT40 Tdp1-/- hTDP1 cells, no CPT, ATP luminescence, 48 h. 420,000 tested, 15% active. Potency, µM (series often up to 46.2 µM), without a hit: at the highest dose activity change, negative = growth inhibition, usual class: inhibitors; also: potency is read from the fitted curve at half-maximal effect; % is scaled to controls: 0 for no effect and ±100 for the full control effect; nearly all actives have a fitted effect of over 55% in size
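Growth kinetics read by CellTiter-Glo luminescence after ≥48 hr at 37 °C. Cells: DT40 Tdp1-/- stably carrying human TDP1, 400 per well, compound exposure in the absence of CPT (DMSO vehicle).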
DT40 TDP1 CPT = growth inhibition of DT40 Tdp1-/-;hTDP1 cells with camptothecin (screen for TDP1 inhibitors) | chicken DT40 Tdp1-/-;hTDP1 cells + 20 nM CPT, ATP luminescence, 48 h | AID 686979 | 420,000 tested, 12% active | Potency, µM (top dose mostly 46.2 µM), for inactives: top-dose activity change, negative = growth inhibition, most hits filed as inhibitors; also: potency is read from the fitted curve at half-maximal effect; % is scaled to controls: 0 for no effect and ±100 for the full control effect; nearly all actives have a fitted effect of over 55% in size
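Cell growth measured by CellTiter-Glo luminescence after a minimum 48 h, 37 C compound exposure with 20 nM CPT in Tdp1-knockout DT40 cells stably expressing hTDP1, seeded 400/well; qHTS titration format.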
miR-21 reporter = miR-21 reporter, rising signal; Potency, µM (titrated, usually from 38.3 µM), without a hit: at the highest dose reporter change, positive = more light; AID 2288; 340,000 tested, under 10 active; HeLa miR-21 FLuc reporter, luciferase, 48 h; active = well fitted rising curve with a large enough effect; inconclusive = small, poorly fitted or top-dose-only effect; inactive = no such curve, though single readings can be large or run the other way;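 note: % of control where 0% means no effect; miR-21 action dims this reporter so a rising signal means less miR-21 action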
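HeLa miR-21-FLuc reporter line, endogenous miR-21; 2000 cells/well in DMEM/10% FBS; compound titration up to ~40uM final, 48 h, 37 degree Celsius; luciferase detection reagent, 15 min lysis, CCD luminescence.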
* marks the source's active call; other numbers are inactive results; ? = inconclusive; · = not tested or not shown; [ ] = remark or other dose. Unless noted, calls follow the shape of the dose curve; as a rule, active = well fitted curve in the direction sought with a large enough effect; inconclusive = small, poorly fitted or top-dose-only effect, or another doubt; inactive = no such curve, though single readings can be large; an effect the other way counts as inactive or inconclusive.

No. | compound | uPA generation | TDP1 block | TDP1 cell noCPT
1 | Cc1ccc(NC(=O)C2CCN(c3nn4cc(-c5ccc(C)cc5)nc4s3)CC2)cc1 | · | 9% | -21%
2 | COc1ccc(C2c3c(n(C)c4ccccc34)C(=O)N2CC(=O)Nc2ccc(Cl)cc2)cc1 (stereo not drawn) | · | 14% | ?
3 | CCc1cccc(C)c1NC(=O)CN1C(=O)c2c(c3ccccc3n2C)C1c1ccc(OC)cc1 (stereo not drawn) | · | 3% | 29µM*
4 | COc1ccc(C2c3c(n(C)c4ccccc34)C(=O)N2CC(=O)Nc2ccc(F)cc2)cc1 (stereo not drawn) | · | 6% | -14%
5 | CCOc1ccc(OCCC(=O)N(CC(=O)Nc2ccccc2C(F)(F)F)Cc2ccco2)cc1 | -7% | 1% | ?
6 | Nc1nonc1-c1nc2ccccc2n1Cc1ccc(F)cc1Cl | ? | 3% | 21µM*
7 | O=C1C(CSCc2ccccc2)NC(=S)N1c1ccccc1 (stereo not drawn) | 11% | 8% | 4.6µM*
8 | OCCC1CN(Cc2cccc(-c3ccco3)c2)CCN1Cc1ccsc1 (stereo not drawn) | 10% | 2% | ?
9 | O=[N+]([O-])c1ccc(-[n+]2ccc3ccccc3c2)c([N+](=O)[O-])c1 | ? | 3% | 1.3µM*
10 | Cc1cc(C(=O)N2CCC2(C)C(=O)NCCC#N)nn1C (stereo not drawn) | · | · | 25%

No. | DT40 TDP1 CPT | miR-21 reporter
1 | -9% | -18%
2 | 18µM* | 25%
3 | ? | 11%
4 | -11% | -1%
5 | -26% | ·
6 | 21µM* | -4%
7 | 2.9µM* | 4%
8 | ? | -1%
9 | 1µM* | ·
10 | 6% | ·

(listing goes on)
No. | compound | uPA generation | TDP1 block | TDP1 cell noCPT
11 | CSc1ccc(/C=C/c2nc3ccccc3n2S(=O)(=O)c2ccc(Br)cc2)cc1 | · | 2% | 10µM*
12 | O=S(=O)(c1cccc(C(F)(F)F)c1)n1c(/C=C/c2ccccc2)nc2ccccc21 | · | -5% | 10µM*
13 | O=C(NCCc1ccccc1)c1cccc(N2CCCC2=O)c1 | ? | 1% | -19%
14 | Cc1c(C(=O)N2CCC2)oc2ccc(Cl)cc12 | -2% | 1% | ?
15 | C#CCSc1nc2sc3c(c2c(=O)n1Cc1ccccc1)CCCC3 | · | -9%[12.3 µM] | ?
16 | C=C(C)CSc1nc2ncc(Cl)cc2[nH]1 | 3% | -14% | -1%
17 | COc1ccc(-n2c(=O)c(CCC(=O)N(C)Cc3cccs3)nc3ccccc32)cc1 | -4% | · | ?
18 | Cc1ccc(-n2c(SCC(=O)N3CCC(C)CC3)nc3c([nH]c4ccccc43)c2=O)cc1 | · | 9% | -23%
19 | CCOc1ccc(-n2c(SCC(=O)N3CCCCCC3)nc3c([nH]c4ccccc43)c2=O)cc1 | · | 5% | 23µM*
20 | CCOc1ccc(-n2c(SCC(=O)N3CCCC3)nc3c([nH]c4ccccc43)c2=O)cc1 | · | 2% | -5%

No. | DT40 TDP1 CPT | miR-21 reporter
11 | 15µM* | ?
12 | 8.2µM* | 32%
13 | 1% | 19%
14 | -12% | ·
15 | ? | -3%
16 | -9% | -14%
17 | ? | ·
18 | -24% | -32%
19 | 21µM* | -9%
20 | -7% | 1%

The results go on:
No. | compound | uPA generation | TDP1 block | TDP1 cell noCPT
21 | COc1ccc(-n2c(=O)c(CCC(=O)N3CCC(C)CC3)nc3ccccc32)cc1 | -6% | 1% | ?
22 | CCOc1ccc(-n2c(SCC(=O)N3CCC(C)CC3)nc3c([nH]c4ccccc43)c2=O)cc1 | · | -3% | 5.2µM*
23 | COc1ccc(C(=O)c2oc3ccccc3c2NC(=O)c2ccc(F)cc2)cc1 | · | -4% | ?
24 | C=CCSC1=C(C#N)C(c2ccc(OCC)cc2)CC(=O)N1 (stereo not drawn) | -14% | -1% | -23%
25 | CCc1ccc(NC(=O)COc2cccc(-n3cnnn3)c2)cc1 | -1% | · | -20%
26 | Cc1cc(C)c(S(=O)(=O)N2CCCC2)c(C)c1 | 1% | 1% | -17%
27 | N#CC(C#N)=c1ccc2c(c1)NC1(CCCCC1)N=2 | -5% | 10% | 10µM*
28 | O=C(Nc1ccc(N2CCN(C(=O)c3ccc(Cl)cc3)CC2)cc1)c1ccc([N+](=O)[O-])o1 | -8% | 5% | 1.2µM*

No. | DT40 TDP1 CPT | miR-21 reporter
21 | 18µM* | ·
22 | 2.1µM* | 5%
23 | ? | -4%
24 | -15% | -2%
25 | 1% | -8%
26 | -18% | 0%
27 | 12µM* | ?
28 | 2.9µM* | -5%

Entries of single compounds, looked up by structure.
CCOc1ccc(-n2c(SCC(=O)N3CCC(C)CC3)nc3c([nH]c4ccccc43)c2=O)cc1 is listed as uPA generation = ·; TDP1 block = -3%; TDP1 cell noCPT = 5.2µM*; DT40 TDP1 CPT = 2.1µM*; miR-21 reporter = 5%
C=CCSC1=C(C#N)C(c2ccc(OCC)cc2)CC(=O)N1 (stereo not drawn) is listed as uPA generation = -14%; TDP1 block = -1%; TDP1 cell noCPT = -23%; DT40 TDP1 CPT = -15%; miR-21 reporter = -2%

Screening results as filed in PubChem BioAssay.
